The conditions of data set [1]: for Intrinsic Dissolution Rate: Wood apparatus, bath 37° C., 900 mL distilled water, 50 rpm, compressed 200-400 mg samples. The protocol:
Intrinsic dissolution rate (IDR) measurements were performed using a Wood apparatus (Pharma Test PT-DT8 instrument) having a bath temperature of 37° C. Samples were prepared by compressing 200-400 mg samples at 1.5 metric tons for 1 minute. A dissolution medium consisting of 900 mL distilled water, and rotation speed of 50 rpm, was used for each experiment.

For data set [2] the following is noted: capped and uncapped samples, 40° C./75% RH, at least 3 months.

“tenofovir alafenamide succinate fumarate [Tenofovir alafenamide succinate fumarate Form APO-I]”: the “Intrinsic Dissolution Rate” value in data set [1] stood at 1.11 mg min^−1 cm^−2. With tenofovir alafenamide succinate malate, the “Intrinsic Dissolution Rate” value in data set [1] was 1.39 mg min^−1 cm^−2. Same read-out and setting: to “tenofovir alafenamide succinate fumarate [Tenofovir alafenamide succinate fumarate Form APO-III]” belongs 1.14 mg min^−1 cm^−2. In the case of “tenofovir alafenamide succinate fumarate [Tenofovir alafenamide succinate fumarate Form APO-II]”, the “change in the crystalline form (PXRD)” value in data set [2] was “no change in the crystalline form”. In data set [1], the “Intrinsic Dissolution Rate” value came out at 1.22 mg min^−1 cm^−2. In data set [1] (compared to crystalline tenofovir alafenamide fumarate (1:1) or tenofovir alafenamide succinate (1:1)), the “intrinsic dissolution rate (IDR), comparison” value is given as “higher”.

The values are drawn from US11667656B2, “Crystalline forms of Tenofovir alafenamide” (Apotex Inc., priority 2021, dated 2023).
